Assay results from patent US9233167B2, “Oligomer-opioid agonist conjugates” (NEKTAR THERAPEUTICS, priority 2007, dated 2016).

These substances were tested against recombinant human kappa opioid receptor (Homo sapiens (Human), UniProt P41145).
Assay type: binding

| Substance | Ki [µM] |
| --- | --- |
| α-6-mPEG7-O-codeine | 108 |
| α-6-mPEG9-O-codeine | 72.2 |
| α-6-mPEG3-O-codeine | 36.5 |
